What was measured:
S1P1 [1] = molecular target: T1, S1P1 (Homo sapiens, UniProt P21453); test: Internalization (endosome formation) after S1P1 receptor activation, S1P1 overexpressing cell line (luminescence); format: cell-based; conditions: read-out: Internalization EC50, endosome formation by internalization
S1P1 [2] = molecular target: T1, S1P1; test: β-arrestin recruitment after S1P1 receptor activation, S1P1 overexpressing cell line (luminescence); format: cell-based; conditions: read-out: β-arrestin EC50

The chains behind the UniProt entries cited, without tags or fusion partners. Where a name states a change or a piece, a line headed by the entry shows the natural chain unless it says otherwise.
UniProt P21453: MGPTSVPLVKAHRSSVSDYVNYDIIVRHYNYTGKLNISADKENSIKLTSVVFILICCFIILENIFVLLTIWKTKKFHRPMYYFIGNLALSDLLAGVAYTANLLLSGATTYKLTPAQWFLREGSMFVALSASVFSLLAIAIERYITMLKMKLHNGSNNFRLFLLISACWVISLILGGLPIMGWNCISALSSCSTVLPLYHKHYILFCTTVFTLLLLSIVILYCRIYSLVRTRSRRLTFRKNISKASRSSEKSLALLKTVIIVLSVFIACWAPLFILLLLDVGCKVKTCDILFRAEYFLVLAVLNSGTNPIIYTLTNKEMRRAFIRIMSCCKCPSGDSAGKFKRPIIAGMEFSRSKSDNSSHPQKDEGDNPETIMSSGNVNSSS

What does the source list for “Methyl 1-(4-(2-(3-isocyano-4-isopropoxyphenyl)-1,3-selenazole-5-yl)benzyl)azetidine-3-carboxylate”?
EC50 (S1P1 [1]): 0.87 nM; EC50 (S1P1 [2]): 3.64 nM

From US20260355161A1, “NOVEL HETEROCYCLYL-PHENYL-METHYLAMINE DERIVATIVES, PREPARATION METHOD THEREOF, AND USE THEREOF IN PREVENTING, ALLEVIATING, OR TREATING MULTIPLE SCLEROSIS” (Cureverse Incorporated, priority 2022, published 2026)
